What was measured:
[1] = target: T1, IMPDH II (Homo sapiens, UniProt P12268); assay: IMPDH activity as a function of ligand-inhibitor conjugate, antibody and analyte concentration (HITACHI 717, NADH at 340 nm)
[2] = target: T1, IMPDH II; assay: Inhibition constants of ligand inhibitors: NADH formation at 340 nm, 10 minutes, 40° C.; type: biochemical; details: IMPDH II 0.00065 U/ml, non-linear curve fit

Structure (SMILES): COc1c(C)c2c(c(O)c1C/C=C(\C)CC(C/C(C)=C/Cc1c(O)c3c(c(C)c1OC)COC3=O)C(=O)O)C(=O)OC2 (stereo not shown)
- ΔA × 10^−4 @ 340 nm ([1]; set B: MPA—MPA in enzyme reagent, no anti-MPA, sample MPA 0 μg/ml): 1666 × 10^−4
- ΔA × 10^−4 @ 340 nm ([1]; set B: MPA—MPA in enzyme reagent, no anti-MPA, sample MPA 5 μg/ml): 557 × 10^−4
- ΔA × 10^−4 @ 340 nm ([1]; set B: MPA—MPA in enzyme reagent, no anti-MPA, sample MPA 10 μg/ml): 214 × 10^−4
- ΔA × 10^−4 @ 340 nm ([1]; set C: MPA—MPA, anti-MPA 1:100, sample MPA 0 μg/ml): 3109 × 10^−4
- ΔA × 10^−4 @ 340 nm ([1]; set C: MPA—MPA, anti-MPA 1:100, sample MPA 5 μg/ml): 2671 × 10^−4
- ΔA × 10^−4 @ 340 nm ([1]; set C: MPA—MPA, anti-MPA 1:100, sample MPA 10 μg/ml): 2135 × 10^−4
- ΔA × 10^−4 @ 340 nm ([1]; set D: MPA—MPA, anti-MPA 1:1000, sample MPA 0 μg/ml): 1957 × 10^−4
- ΔA × 10^−4 @ 340 nm ([1]; set D: MPA—MPA, anti-MPA 1:1000, sample MPA 5 μg/ml): 804 × 10^−4
- ΔA × 10^−4 @ 340 nm ([1]; set D: MPA—MPA, anti-MPA 1:1000, sample MPA 10 μg/ml): 304 × 10^−4
- IC50 [2]: 32 nM
